## Antibody variant affinities, Ab-14 heavy chain, assay B

Data: MIT Lincoln Laboratory AlphaSeq set, Li et al. 2023, doi:10.1038/s41467-023-39022-2, as distributed in FLAb.

All variants were tested on one target, the spike HR2 peptide PDVDLGDISGINAS (SARS-CoV-2).

The variants keep the light chain, the linker and the frameworks of Ab-14 (scFv order VH, the linker GGGGSGGGGSGGGGS, VL).
VH: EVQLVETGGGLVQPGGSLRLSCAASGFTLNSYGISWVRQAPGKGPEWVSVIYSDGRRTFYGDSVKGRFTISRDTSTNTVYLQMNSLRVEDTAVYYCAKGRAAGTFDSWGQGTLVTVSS
VL: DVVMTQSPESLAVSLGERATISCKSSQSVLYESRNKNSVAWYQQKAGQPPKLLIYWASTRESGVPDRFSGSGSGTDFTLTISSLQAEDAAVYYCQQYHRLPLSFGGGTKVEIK

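These sequences belong to a second round, designed from the earlier measurements on random variants of the parent. Several design methods are mixed in this list. In AlphaSeq, yeast of one mating type display the scFv and yeast of the other type display the target. The frequency of each diploid, read from paired DNA barcodes, reflects how well the two displayed proteins bind. A regression on co-assayed BCL2-family reference pairs converts the normalised counts of each replicate to an apparent Kd. Each pool was mated in six replicate cultures.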

The parent's heavy chain CDRs are GFTLNSYGIS, VIYSDGRRTFYGDSVK, GRAAGTFDS; each variant's own CDRs replace them letter for letter.
Values are log10 of the apparent Kd in nM; lower means stronger binding.
Replicates are averaged; those with no signal do not enter the mean.
"nd" means that the variant was in the library but no mating with the target was seen in any replicate; the authors take this as a sign of poor binding, and no number exists.
The parent sequence was in this pool as ten entries: three were never detected, three once, and four in most replicates, with averages from 0.34 to 2.37.
Some sequences occur more than once in the pool; their replicates are pooled.
The authors' rule: three or more of the six replicates give a measured affinity, fewer mean a poor binder.
Background: pairings of all heavy chain designs with three empty control strains gave a value in 1% of cases (median 2.08, 5th percentile 0.84). Values in that range, when seen in few replicates, are hard to tell from nonspecific mating.
The range of this assay differs from that of the first round, and the authors advise against merging the two.

-0.66 (6 of 6 replicates) for GFDLNEYGIS | VIYADGFRTAYADSVK | GENAGTFDV.
-0.29 (6 of 6 replicates) for GFDLNEYGIS | VIYADGRRTFYSDSVK | GNTGGTFDE.
-0.27 (6 of 6 replicates) for GFDLNEYGIS | VIYADGSRTAYADSVK | GNVAGTFDL.
1.87 (6 of 6 replicates) for KFQLNSYGIS | VIYADGRRTFYGDSVK | GQAAGTFDS.
nd (0 of 6 replicates) for GFELNSYGIS | VIYSDGMRTFYGDSVK | ARAAGTFDS.
0.07 (6 of 6 replicates) for GFTLNEYGIS | VIYSDGRRTFYTDSVK | GHVAGTFDS.
nd (0 of 6 replicates) for GFTLNEYGIS | VIYSDGRRTFYGDSVK | GRFAGTFDW.
nd (0 of 6 replicates) for GFDLNEYGIS | VIYADGMRTNYTDSVK | GNEAGTFDS.
-0.46 (6 of 6 replicates) for GFDLDEYGIS | VIYADGKRTFYTDSVK | GNVAGTFDV.
1.28 (6 of 6 replicates) for GFDLNKYGIS | VIYSDGRRTHYGDSVK | GRAAGTFDS.
-0.50 (6 of 6 replicates) for GFQLDEYGIS | VIYADGRRTFYSDSVK | GSTAGTFDV.
3.36 (1 of 6 replicates) for GFTLNEYGIS | VIYSDGRRTHYGDSVK | GQAEGTFDD.
0.89 (1 of 6 replicates) for DFTLNFYGIS | VIYSDGRRTFYSDSVK | GRARGTFDS.
nd (0 of 6 replicates) for GFTLNSYGIS | VIYSDGRRTFYGDSVK | GSAASTGDS.
1.92 (6 of 6 replicates) for GFTLNSYGIS | VIYSDGHRTFYDDSVK | GKLAGTFDS.
-0.31 (6 of 6 replicates) for GFDLNEYGIS | VIYADGRRTAYTDSVK | GGNAGTFDQ.
nd (0 of 6 replicates) for GFRLNSYGIS | VIYSDGRRTFYGDSVK | GKAAGTFPS.
nd (0 of 6 replicates) for GFQLNSYGIS | VIYSDGRRTFYVDSVK | GRAAGTFDS.
-0.49 (6 of 6 replicates) for GFDLNEYGIS | VIYADGMRTAYSDSVK | GNNAGTFDQ.
-0.01 (6 of 6 replicates) for GFDLNEYGIS | VIYADGVRTAYADSVK | GNVAGTFDE.
-0.09 (6 of 6 replicates) for GFDLNEYGIS | VIYADGRRTFYTDDVK | GENAGTFDL.
-0.01 (6 of 6 replicates) for GFSLNEYGIS | VIYSDGRRTFYHDSVK | GRHAGTFDS.
1.10 (2 of 6 replicates) for GFELNMYGIS | VIYSDGRRTFYTDSVK | GRTAGTFDS.
nd (0 of 6 replicates) for GFTLNSYGIS | VIYADGRRTFYGDSVK | GVDAVTFDS.
nd (0 of 6 replicates) for GFTLNSYGIS | VIYSDGRRTFYVDRVK | GRAGGTFDV.
-0.13 (6 of 6 replicates) for GFSLNDYGIS | VIYSDGRRTFYGDSVK | GRCAGTFIS.
2.22 (1 of 6 replicates) for GFTLNEYGIS | VIYSVGRRTFYTDSVK | GVFAGTFDS.
nd (0 of 6 replicates) for GKDIEEYGVS | VIYADGKRNAYANKVK | GKNAGAFVD.
1.36 (4 of 6 replicates) for GFTLNDYGIS | VIYSDGRRTMYMDSVK | GRAAGTFDS.
0.39 (6 of 6 replicates) for GFDLNEYGIS | VIYADGRRTFYADSVK | GEAAGFFDQ.
0.52 (6 of 6 replicates) for GFDLNEYGIS | VIYADGRRTFYSDSVK | GNTAGTFDE.
1.27 (5 of 6 replicates) for GFDLNSYGIS | VIYSDGRRTFYADWVK | GNAAGTFDS.
nd (0 of 6 replicates) for GFDLEEYGIS | VIYADGRRVSYAQNVK | GVYSGTHYV.
nd (0 of 6 replicates) for GFTLNNYNIS | VIYADGRMTFYGDSVK | GRAAGTNKS.
1.94 (5 of 6 replicates) for GFDLNSYGIS | VIYSDGRRTFYGDSVK | GRNAGTFNS.
2.35 (1 of 6 replicates) for GFTLNSYGIS | VIYSDGRRTMYIDSVK | GRAAGTFDS.
4.32 (1 of 6 replicates) for GFTLNDYGIS | VIYSDGWRTQYIDSVK | GRAAGTFDS.
1.08 (10 of 12 replicates) for GFTLNSYGIS | VIYSDGRRTFYGDSVK | GEEAGTFDS.

The 3 strongest on average among those seen in every replicate, once more:

| CDR-H1 | CDR-H2 | CDR-H3 | mean log10 Kd (nM) | detected |
|---|---|---|---|---|
| GFDLNEYGIS | VIYADGFRTAYADSVK | GENAGTFDV | -0.66 | 6/6 |
| GFQLDEYGIS | VIYADGRRTFYSDSVK | GSTAGTFDV | -0.50 | 6/6 |
| GFDLNEYGIS | VIYADGMRTAYSDSVK | GNNAGTFDQ | -0.49 | 6/6 |